We go through 48 compounds from PubChem BioAssay AID1628 (Sanford-Burnham Center for Chemical Genomics, 2009).

This is a selection; strong and weak results do not stand in their true shares. Entries with a potency or affinity are not part of this list. Activity calls are given as the source filed them.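 Rule for the calls: active = z-score of insulin promoter reporter brightness in nuclei below -3 at 5 µM, with at least 500 cells counted; inconclusive = wells with under 500 cells, flagged as toxic or sparse; inactive = the rest.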

The nature of this assay: insulin promoter down-regulators in MIN6 cells, imaging, high-content screening, mouse beta cells (AID 1628). The settings on record: MIN6 insulin promoter GFP reporter, at 5 µM, active compounds read low.
As to `Cc1ccc(OP(=O)(Nc2ccc([N+](=O)[O-])cn2)Oc2ccc(C)cc2)cc1`, the z-score is inactive: 0.54. Next, `Cc1ccc2nc3c(c(C)c2c1)CC(C(Cl)Cl)S3` (stereo not drawn): inactive: -0.02; `C[As](=O)(O)c1cccc(C(=O)O)c1`: inactive: 0.27; `O=[As](O)(c1ccc(O)cc1)c1ccccc1O`: inactive: -0.01. As for `O=[N+]([O-])c1cc([N+](=O)[O-])c(-c2ccn[nH]2)s1`, the figure is inactive: -1.73. As for `CC(C)NC(=O)NP(=O)(Oc1ccccc1)Oc1ccccc1`, the figure is inactive: 0.54. On to `ClCCSc1nnc(-c2cccnc2)o1`, for which the z-score is inactive: 0.67. Next, `CC(C)c1ccc(OP(=O)(Nc2ccccn2)Oc2ccccc2F)cc1` (stereo not drawn): inactive: 0.39. Regarding `COc1cc(I)ccc1[As](=O)(O)O`, the z-score was inactive: -0.14. Next, `COc1ccc2nc(NP(=O)(c3ccccc3)c3ccccc3)sc2c1`: inactive: -0.71; `Cc1c2c(nc3ccccc13)SC(C(Cl)Cl)C2` (stereo not drawn): inactive: 0.46; `Cc1cc(=O)[nH]c(N[N+](=O)[O-])n1`: inactive: 0.56. Take `O=C(OC1CN2CCC1CC2)C12CC3CC(CC(C3)C1)C2` (stereo not drawn): the z-score was inactive: 0.51. As for `COc1ccc(N/C(=N/P(=O)(N2CCOCC2)N2CCOCC2)N2CCOCC2)cc1`, the figure is inactive: -0.27. Regarding `O=[As](O)(c1cccc(O)c1)c1cccc(O)c1`, the z-score was inactive: 0.8. As for `Cc1cccc(OCC(=O)OC2CN3CCC2CC3)c1` (stereo not drawn), the figure is inactive: -0.37; as for `O=C(OC1CN2CCC1CC2)c1ccc(Cl)cc1` (stereo not drawn), inactive: 1.1. As for `COc1cc(C(=O)NCC2(N3CCOCC3)CCCCC2)cc(Cl)c1OC(C)C`, the figure is inactive: 0.46; as for `O=[As](O)(O)c1cccnc1`, inactive: -0.11.

`CCOP(=O)(Nc1cccc2ccccc12)OCC`: the z-score was inactive: 0.2. Turning to `COc1cc(C2NCCC3(OCCO3)C2(C)C)cc(OC)c1OC` (stereo not drawn), the z-score is inactive: -0.31. As for `Nc1cccc2c([As](=O)(O)O)cccc12`, the figure is inactive: -0.09; as for `Cc1ccc(NCCc2c([N+](=O)[O-])cc([N+](=O)[O-])cc2[N+](=O)[O-])cc1`, inactive: -0.2; as for `CCCOP(=S)(Nc1nc(N)cc(=O)[nH]1)OCCC`, inactive: 1.75. Next, `Nc1ccccc1[As](=O)(O)c1ccccc1`: inactive: 0.18; `O=C(O)COc1ccc([As](=O)(O)O)cc1[N+](=O)[O-]`: inactive: -1.14. Next, `O=P(Nc1nccs1)(c1ccccc1)c1nc2ccccc2s1` (stereo not drawn): inactive: -0.45. As for `CCOP1(=S)c2c(C)nn(CCC#N)c2N=C(c2ccccc2F)N1C` (stereo not drawn), the z-score was inactive: -0.88. `CS(=O)(=O)c1cc([N+](=O)[O-])c2no[n+]([O-])c2c1`: the z-score is inactive: 1.11. Next, `CCOP1(=S)c2c(C)nn(CCC#N)c2N=C(c2ccc(F)cc2)N1C` (stereo not drawn): inactive: -0.46.

Turning to `CN(C(=O)Cc1ccccc1)[C@@H]1CC[C@]2(CCCO2)C[C@H]1N1CCCC1`, the z-score is inactive: -0.36. In the case of `O=[N+]([O-])c1ccc2c(c1)nnn2O`, the z-score is inactive: 0.08. As for `CN(C)C1(CNC(=O)c2ccc(S(C)(=O)=O)cc2)CCCCC1`, the figure is inactive: 0.6; as for `O=C(/C=C/c1ccccc1)OC1CN2CCC1CC2` (stereo not drawn), inactive: 0.76; as for `CC1CCC(C(C)C)C(OP(=O)(Nc2ccccn2)c2ccccc2)C1` (stereo not drawn), inactive: 0.16. With `Cc1nn(-c2ccccc2)c2c1P(=O)(N1CCOCC1)N(C)C(c1ccccc1)=N2` (stereo not drawn), the z-score is inactive: -1.2. `Nc1cccc([As](=O)(O)c2ccccc2)c1`: the z-score is inactive: -0.21. Take `O=P1(Nc2ccc(Br)cn2)COc2ccccc2OC1`: the z-score was inactive: 0.16.

Regarding `O=[As](O)(c1cccs1)c1cccs1`, the z-score is inactive: 0.56.

As to `Cc1ccc(OCC(=O)OC2CN3CCC2CC3)cc1` (stereo not drawn), the z-score is inactive: 1.15. With `O=P1(Nc2ncccn2)COc2ccccc2OC1`, the z-score is inactive: 2.07. Next, `CC(C)(C)C(=O)NC(Sc1ncccn1)C(Cl)(Cl)Cl` (stereo not drawn): inactive: 0.35; `Clc1n[nH]nc1-c1nn[nH][15n]1`: inactive: 0.99; `O=P1(Nc2ccccn2)COc2ccccc2OC1`: inactive: 0.03. Next, `CCOP(=O)(Nc1ccc(C)cn1)OCC`: inactive: -0.27. As for `CC(C)/C=N\N=C(\N)N[N+](=O)[O-]`, the figure is inactive: -0.61; as for `CN(C(=O)Cc1ccc(Cl)c(Cl)c1)[C@@H]1CCCC[C@H]1N1CCCC1`, inactive: -0.01. As to `O=[As](O)(c1ccccc1Br)c1ccccc1Br`, the z-score is inactive: 0.05.
